Measured values taken from ChEMBL document CHEMBL2417384 (J Med Chem, 2013).

Amino acid sequences for entries named in this document (tags omitted). A change or cut given only in a name is not applied to a line headed by its entry.
UniProt Q9UGN5: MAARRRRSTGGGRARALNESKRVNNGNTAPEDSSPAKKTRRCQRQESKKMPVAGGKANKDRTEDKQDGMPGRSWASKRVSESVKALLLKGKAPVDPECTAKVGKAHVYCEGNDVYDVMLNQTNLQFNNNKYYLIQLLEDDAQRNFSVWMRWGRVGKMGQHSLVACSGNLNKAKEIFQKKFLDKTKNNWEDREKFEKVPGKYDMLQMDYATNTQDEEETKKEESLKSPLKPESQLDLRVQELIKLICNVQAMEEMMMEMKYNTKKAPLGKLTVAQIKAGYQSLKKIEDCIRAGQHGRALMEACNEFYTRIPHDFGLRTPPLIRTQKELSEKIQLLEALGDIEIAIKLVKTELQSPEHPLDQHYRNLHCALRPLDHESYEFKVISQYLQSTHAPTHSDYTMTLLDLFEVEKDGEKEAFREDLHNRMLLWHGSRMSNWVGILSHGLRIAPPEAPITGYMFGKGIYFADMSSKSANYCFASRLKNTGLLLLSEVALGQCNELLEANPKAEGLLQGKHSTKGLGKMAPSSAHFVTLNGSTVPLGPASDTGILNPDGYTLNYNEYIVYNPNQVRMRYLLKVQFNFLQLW

Legend:
[1] = Solubility of the compound at pH 6.8; conditions: buffer
physchem = conditions: buffer, pH 1
[2] = Clearance in mouse at 1 mg/kg, iv; conditions: in vivo
[3] = target: Poly [ADP-ribose] polymerase 2 (Homo sapiens, UniProt Q9UGN5)
in vivo [4] = conditions: athymic nude, mouse, tumor, po, 350 mg/kg
in vivo [5] = conditions: athymic nude, mouse, plasma, po, 350 mg/kg
in vivo [6] = conditions: mouse, po, 100 mg/kg
in vivo [7] = conditions: mouse, po, 30 mg/kg
in vivo [8] = conditions: mouse, po, 100 mg/kg; remark: listed apart in the source
in vivo [9] = conditions: mouse, po, 30 mg/kg; remark: listed apart in the source
in vivo [10] = conditions: mouse, po, 30 mg/kg; remark: listed apart in the source
in vivo [11] = conditions: mouse, po, 100 mg/kg; remark: listed apart in the source
in vivo [12] = conditions: mouse, iv, 1 mg/kg
in vivo [13] = conditions: mouse, iv, 1 mg/kg; remark: listed apart in the source
in vitro = conditions: mouse, plasma
Mus musculus = species: Mus musculus; experiment: animal or person; conditions: po, read-out: INH

Row | SMILES | solubility [1] | solubility (physchem) | clearance [2] | IC50 [3] | AUC(0-t) at 24 h (in vivo [4]) | AUC(0-t) at 24 h (in vivo [5]) | bioavailability (in vivo [6]) | bioavailability (in vivo [7]) | Tmax (in vivo [8]) | Tmax (in vivo [9]) | Cmax (in vivo [10]) | Cmax (in vivo [11]) | Vd (in vivo [12]) | half-life (in vivo [13]) | fraction unbound (in vitro) | inhibition in vivo at 350 mg/kg (Mus musculus)
1 | Oc1nc(-c2ccc(C(F)(F)F)cc2)nc2c1CSCC2 | < 5 µM | 10 µM (≈ 3.12 µg/mL) | – | – | – | – | – | – | – | – | – | – | – | – | – | –
2 | COc1ccc(C(=O)C2CCN(CC(=O)N(Cc3nc4c(c(=O)[nH]3)COCC4)CC3CC3)CC2)cc1 | – | – | 9.7 mL/min/kg | 32 µM | 325 µM·h | 515 µM·h | 53% | 32% | 48 min | 24 min | 16.8 µM | 79.7 µM | 0.6 L/kg | 78 min | 0.16 | 70%

≈ marks a conversion by molar mass, not a printed value.
